## Yeast mating assay B: variants of the scFv Ab-14

All variants were tested on one target, the spike HR2 peptide PDVDLGDISGINAS (SARS-CoV-2).

The variants keep the heavy chain, the linker and the frameworks of Ab-14 (scFv order VH, a (GGGGS)3 linker, VL).
VH: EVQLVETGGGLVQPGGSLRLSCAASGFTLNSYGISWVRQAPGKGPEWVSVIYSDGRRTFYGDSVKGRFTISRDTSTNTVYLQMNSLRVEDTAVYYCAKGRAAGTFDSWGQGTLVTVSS
VL: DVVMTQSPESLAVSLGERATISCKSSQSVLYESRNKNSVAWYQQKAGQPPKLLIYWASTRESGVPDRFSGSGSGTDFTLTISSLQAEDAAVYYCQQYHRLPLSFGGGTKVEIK

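Phage display of a naive human antibody library on the peptide gave the parent. This is the validation round: designs drawn from the data on random variants, tested in the same kind of assay. Their group label is 14L_En_Gibbs (En: ensemble of fine-tuned language models; Gibbs: Gibbs sampling). The scFvs were displayed on barcoded MATa yeast, the peptide on MATalpha yeast. Binding brings cells together so that they mate, and sequencing counts the barcode pairs among the diploids. Each replicate has its own calibration line, from reference interactions of the BCL2 family. There are six technical replicates.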

The parent's light chain CDRs are KSSQSVLYESRNKNSVA, WASTRES, QQYHRLPLS; each variant's own CDRs replace them letter for letter. Values are log10 of the apparent Kd in nM; lower means stronger binding. An entry "nd" has no value in the source: the pair was not observed among the diploids in that replicate. This suggests poor binding but is not conclusive. Of ten entries with the parent sequence, four were seen in most replicates (averages 0.34 to 2.37), three in one and three in none, so single entries are noisy. Values of this round are not directly comparable with the first-round values of the same sequences. In the paper, a design with two or fewer of six values counts as a poor binder. As a blank, each scFv also met three strains without target: over all light chain designs, 4% of these pairings were detected, typically at 2.64 and seldom below 1.59. The control count says in how many pairings with the empty strains this scFv gave a signal, with their mean in brackets.

| # | CDR-L1 | CDR-L2 | CDR-L3 | replicates, log10 nM | control signals |
|---|---|---|---|---|---|
| 1 | ILNLTPMEHQIHMDAIA | QEAIRNA | QQYARLPLS | 1.37 / 1.87 / 0.85 / 1.44 / 1.08 / 1.54 | 0/18 |
| 2 | KLSDNQYAIDQDKHAIA | EGHSTEM | QQYMRLPLT | 0.25 / 0.21 / -0.02 / 0.00 / -0.04 / 0.24 | 1/18 (2.42) |
| 3 | RIDAYPNMLGKNIESIA | EAALTLT | QQYARLPLS | 1.04 / 1.08 / 1.39 / 1.25 / 1.19 / 1.05 | 2/18 (2.14) |
| 4 | FLTYAQDQTGLQYNAIA | QVNLKEN | QQYGRLPLA | nd / nd / 2.29 / nd / nd / nd | 1/18 (2.82) |
| 5 | KISTQIPEFEMDDNAIA | MATLRET | QQYQRLPLS | 1.41 / 1.48 / 1.17 / 1.47 / 1.20 / 1.35 | 3/18 (2.01) |
| 6 | RMEWHMSGATEAKNSMA | GVEHRAN | QQYDRLPLS | 0.20 / 0.20 / -0.01 / -0.11 / 0.18 / 0.56 | 1/18 (1.70) |
| 7 | RMEWHMSGATEAKNSMA | GVEHRAN | QQYDRLPLE | 0.64 / 0.49 / 0.63 / 0.37 / 0.57 / 0.70 | 1/18 (3.13) |
| 8 | QVSNTNMQGHAMEHNVA | EATYAEE | QQYARLPLQ | 1.50 / 1.06 / 1.66 / 1.04 / 1.44 / 1.40 | 0/18 |
| 9 | ALEMDTLGQKPKQNNIA | NARVSWE | QQYYMLPLS | nd / 1.47 / 2.70 / 1.36 / 1.51 / 1.97 | 0/18 |
| 10 | VLPFPTMRFDVQGNSIA | NAVMRME | QQYERLPLT | 1.04 / 0.49 / 0.78 / 0.77 / 1.36 / 0.73 | 1/18 (2.44) |
| 11 | HVSSMDMNDGGIKKSVA | DDKITER | QQYMRLPLS | 1.27 / 0.75 / 0.77 / 1.13 / 0.76 / 1.09 | 0/18 |
| 12 | QLQFLDVQYGVKEQAIA | EENQRHQ | QHYFRLPLS | nd / 1.44 / 3.57 / 3.11 / 2.30 / 1.99 | 0/18 |
| 13 | NLQNIGSELSVWKRAIA | DVNIRES | QQYFRLPLL | -0.03 / -0.04 / -0.20 / -0.23 / -0.16 / 0.10 | 1/18 (2.65) |
| 14 | KVNISPHKQGMHKHGVA | DHDMRVA | QQYDRLPLT | 0.67 / 0.70 / 0.68 / 0.88 / 0.57 / 0.66 | 1/18 (2.78) |
| 15 | MIEEGHAGEIKNSSNIA | SQDQKTD | QQYQRLPLI | 1.91 / 1.53 / 1.38 / 1.99 / 1.07 / 1.36 | 4/18 (3.42) |
| 16 | HISIKLPGNWYMGDSVA | HSERRAE | QQYARLPLG | 1.02 / 0.57 / 0.81 / 0.73 / 0.57 / 0.86 | 2/18 (2.39) |
| 17 | FMEMDFQGNSGNHNSIA | SEEVKTR | QHYARLPLS | nd / nd / nd / nd / nd / nd | 0/18 |
| 18 | QVVDEQWAEGMNIQSIA | EGEVRKD | QQYNRLPLS | 2.23 / 1.74 / nd / 2.29 / 2.68 / 3.01 | 0/18 |
| 19 | QFTQNIFYGQRDDNSIA | HADELVK | QQYDRFPLD | 2.25 / 2.71 / nd / nd / 4.33 / 2.88 | 2/18 (2.28) |
| 20 | HLSDRLSYGKDLQNAVA | GVQARMT | QQYARLPLL | 1.01 / 1.00 / 0.91 / 0.95 / 0.90 / 1.95 | 1/18 (2.69) |
| 21 | HVAQTRQEDISNKKNVA | EGSVVID | QQYSKLPFS | 0.02 / 0.31 / 0.39 / 0.11 / 0.08 / 0.35 | 1/18 (2.21) |
| 22 | QLNHYKHETMAKWQNIA | DMTIRED | QQYAHLPLA | 0.55 / 0.69 / 1.12 / 0.27 / 0.58 / 0.91 | 1/18 (1.44) |
| 23 | RLSLEHTGYWEMMNNIA | QASTKQF | QQYDRLPLH | 0.81 / 1.18 / 0.61 / 0.78 / 0.18 / 0.99 | 1/18 (2.47) |
| 24 | HLNLEYMQMMKDHNSIA | DTEHKTK | QQYFRLPIS | 0.38 / 0.71 / 0.35 / 0.08 / 0.53 / 0.50 | 0/18 |
| 25 | KLMEQFGHQMDHKNSIA | HVDMLAQ | QQYMHLPLI | 0.81 / 0.76 / 0.66 / 0.76 / 0.77 / 0.80 | 3/18 (2.85) |
| 26 | TIDDEMPNHGFHWNSIA | GVATVLQ | QQYDRLPLS | nd / 2.37 / 3.35 / 1.77 / 2.82 / 2.59 | 0/18 |
| 27 | KLMNSLDAFKQWEDNVA | EVEHKVA | QQYQHLPLT | nd / nd / 2.16 / nd / nd / nd | 2/18 (1.60) |
| 28 | KIYQLGLGSQKIMRNIA | ETSTRCT | QSYQRLPLS | 1.38 / 0.92 / 1.18 / 1.21 / 0.81 / 1.30 | 2/18 (4.05) |
| 29 | HISNMQAYGYSATNSVA | DNTNKLN | QQYIRLPLT | 0.11 / 0.18 / -0.06 / -0.11 / 0.07 / 0.06 | 1/18 (2.60) |
| 30 | RADAAPPIQGNNIDSVA | ENAIRLD | QQYARLPLS | 1.13 / 1.13 / 0.79 / 1.13 / 1.17 / 1.17 | 1/18 (2.97) |
| 31 | KLKELFNMWARAQGNVA | DATERCT | QQYSRLPIT | nd / 0.64 / 1.32 / 0.61 / 0.37 / 0.90 | 0/18 |
| 32 | KIAYQADMYGAQCNNVA | HADIREP | QQYFKLPLN | 1.21 / 0.72 / 0.62 / 0.71 / 0.47 / 0.82 | 0/18 |
| 33 | MMGMTVENQSNMIQNVA | DMNERFA | QQYFQLPLS | 0.85 / 1.17 / 1.27 / 1.20 / 0.77 / 1.36 | 1/18 (2.36) |
| 34 | SLTAHVEEKKGAESSVA | EAVMLES | QQYHQLPLM | 1.18 / 1.07 / 0.75 / 0.92 / 1.10 / 1.32 | 0/18 |
| 35 | VLGGQWGLGTTNNSAIA | NDSETML | QQYWRLPFM | 1.38 / 2.70 / 1.88 / 1.32 / 1.67 / 1.71 | 2/18 (2.10) |
| 36 | MLNGPVEIEQHKWNSVA | SAEITAM | QQYGRLPFS | nd / 1.75 / nd / 0.69 / nd / 1.16 | 0/18 |
| 37 | KLDLNNGEMDKKGQNIA | EASTAGM | QSYWRLPLS | 1.61 / 1.88 / 2.33 / 1.86 / 1.38 / 2.81 | 1/18 (2.23) |
| 38 | QFDLRMNEQGMQNAAIA | GATNRHT | QQYQKLPLS | 1.20 / 0.52 / 0.43 / 0.40 / 1.07 / 0.48 | 0/18 |

From the AlphaSeq antibody data of Li et al. 2023 (doi:10.1038/s41467-023-39022-2), copy in the FLAb collection.